# Assay results as given in PubChem BioAssay AID1910 (Broad Institute, 2009).
# The list shows a part of the results, in another mix than the full data. Active and inactive are the calls of the source.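 How the source made its calls: active means mean activation of at least 10% of the iron chelator positive control signal, with at least half of replicates also reaching 10%; inconclusive means mean and replicate majority disagree about reaching 10%; inactive means mean and most replicates under 10%.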
# Assay: HIF pathway transcriptional activators, primary screen, cell-based, U2OS HRE-luciferase, luminescence (AID 1910)
# Settings: U2OS HRE-luciferase reporter, hits give high values, screened at 7.5 µM (by protocol), normalized: DMSO 0%, desferrioxamine 100%
row,Compound,activation
1,O=[N+]([O-])c1cc([N+](=O)[O-])c(O)c([N+](=O)[O-])c1.c1ccc(Oc2ccncc2)cc1,inactive: -1.12%
2,CCOP(C)(=S)SCC(=O)NC(C)C(=O)O (stereo not given),inactive: 0.0602%
3,CP(=O)(Nc1ccccn1)Oc1ccc(Cl)cc1 (stereo not given),inactive: 0.259%
4,CP(=O)(Oc1ccccc1)OC(c1ccccc1)C(F)(F)F (stereo not given),inactive: -0.866%
5,Cc1cccc(C)c1OP(C)(=O)Nc1ccc(SC(F)(F)F)cc1 (stereo not given),inactive: -0.403%
6,CP(=O)(Nc1ccc(SC(F)(F)F)cc1)Oc1ccc(Cl)cc1 (stereo not given),inactive: 0.4%
7,Cc1cc(C)cc(OP(C)(=O)Nc2ccc(SC(F)(F)F)cc2)c1 (stereo not given),inactive: -0.445%
8,CCc1ccc(OP(C)(=O)N2CCN(c3ccc([N+](=O)[O-])cc3)CC2)cc1 (stereo not given),inactive: 0.758%
9,CP(=O)(NC(=O)Nc1ccccc1)Oc1ccccc1 (stereo not given),inactive: 0.807%
10,O=[N+]([O-])c1cc([N+](=O)[O-])c(-c2cnn(-c3ccccc3)c2)c([N+](=O)[O-])c1,inactive: -0.593%
11,O=[N+]([O-])c1cc([N+](=O)[O-])c(-n2nnc3ccccc32)c([N+](=O)[O-])c1,inactive: -0.262%
12,COc1ccccc1OP(C)(=O)Nc1c(C)cccc1C (stereo not given),inactive: -0.305%
13,CN1CCCCC1COC(=O)C1(O)c2ccccc2CCc2ccccc21 (stereo not given),inactive: 0.437%
14,CP(=O)(Nc1ccc(SC(F)(F)F)cc1)Oc1ccccc1 (stereo not given),inactive: -0.192%
15,CCCOc1ccc(NP(C)(=O)Oc2ccc(Cl)cc2)cc1 (stereo not given),inactive: -0.528%
16,CCOC(=O)C(CC)C1=NC(C)(C)Cc2ccccc21.O=[N+]([O-])c1cc([N+](=O)[O-])c(O)c([N+](=O)[O-])c1 (stereo not given),inactive: -0.353%
17,O=[N+]([O-])c1cc([N+](=O)[O-])c(Nc2nnnn2CCO)c([N+](=O)[O-])c1,inactive: -1.07%
18,CC1=NCCc2c1[nH]c1ccccc21.O=[N+]([O-])c1cc([N+](=O)[O-])c(O)c([N+](=O)[O-])c1,inactive: -0.222%
19,O=C(O)c1cccc(Nc2c([N+](=O)[O-])cc([N+](=O)[O-])cc2[N+](=O)[O-])c1,inactive: -0.35%
20,Cc1ccc(C)c(NP(C)(=O)Oc2ccccc2)c1 (stereo not given),inactive: -1.87%
21,CP(=O)(Nc1cccc(Br)c1)Oc1ccccc1 (stereo not given),inactive: -1.26%
22,Cc1cc(C)cc(OP(C)(=O)Nc2ccccn2)c1 (stereo not given),inactive: 0.33%
23,COc1ccccc1OP(C)(=O)Nc1cccc(Br)c1 (stereo not given),inactive: 0.33%
24,CCOC(=O)c1ccc(NP(C)(=O)Oc2cc(C)cc(C)c2)cc1 (stereo not given),inactive: 1.18%
25,Cc1cc(C)cc(OP(C)(=O)Nc2ccc(C)cc2C)c1 (stereo not given),inactive: -0.271%
